Test results as given in ChEMBL document CHEMBL4680083, “Identification of Tricyclic Agonists of Sphingosine-1-phosphate Receptor 1 (S1P) Employing Ligand-Based Drug Design” (J Med Chem, 2016).

Test: Selectivity index, ratio of EC50 for agonist activity at human S1P3 expressed in CHO cell membranes to EC50 for agonist activity at human S1P1 expressed in CHO cell membranes
Assay type: cell-based

Structure (SMILES)	Ratio EC50
O=C(O)C1CN(Cc2ccc(-c3noc(-c4onc(-c5ccccc5)c4C(F)(F)F)n3)cc2)C1	3400
O=C(O)C1CN(Cc2ccc3c(c2)CCc2c-3noc2-c2onc(-c3ccccc3)c2C(F)(F)F)C1	7500
